Source: PubChem
UUG fidelity = modulators of start codon recognition fidelity in yeast; S. cerevisiae UUG-firefly luciferase reporter, luminescence/redox ratio; activity score, % at 18.7 µM; hit rate 0.13% among 350,000; AID 602363;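 active = replicate mean at a twofold rise or more, about +100% in these data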;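 note: firefly luciferase made from a UUG start codon reports start codon fidelity; reporter light over untreated wells divided by growth signal over untreated wells; some hits fall short of that in this replicate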
CDK5 inh = blocks human CDK5/p35 kinase activity | Q00535+Q15078 | Recombinant CDK5/p35, ADP-Glo luminescence, 60 min | inhibition, % at 10 µM | 0.01% of 330,000 active | AID 488839;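 active = highest replicate inhibition of at least 50% and at least 75% of replicates reaching 50%; inconclusive = only one of the two criteria met; inactive = both criteria failed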;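 note: plate controls were DMSO neutral control for no effect and GW8510 at 10 µM for full effect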
Rtt109 Vps75 = blocks Candida albicans Rtt109/Vps75 acetyltransferase activity. 0.16% of 330,000 active. inhibition, % at 34.9 µM. purified Rtt109/Vps75, ThioGlo CoA-SH fluorescence, 4 h. AID 540336. Q5AAJ8;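 active = inhibition of at least 50% in every replicate; inconclusive = best replicate reaches 50% inhibition but some replicates fall short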
Cneo AK release = Cryptococcus neoformans lysis via adenylate kinase release; C. neoformans lysis, adenylate kinase release luminescence, 4 h; normalised: neutral wells 0, clomiphene wells 100; lysis activity, % at 15 µM; 0.2% of 360,000 active;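 active = mean lysis activity across replicates of at least 80%, whatever share of replicates individually reach that level; inactive = mean lysis activity below 80%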
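Material – Cryptococcus neoformans yeast cells · Quantity – 5 × 10^6 yeast cells/mL · Buffer or medium – YPD medium · Compound – single dose · Timing – 4 h static compound exposure, 37 °C, read 1 h post-reagent · Signal – adenylate kinase release luminescence · Read-out basis – lysis from increased AK signal · Benchmarks – Clomiphene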
C2C12 statin = suppression of simvastatin myotoxicity | C2C12 myotubes + simvastatin, ATP luminescence, 48 h; scaled: DMSO 0, geranylgeraniol control 100 | rescue of ATP level, % at 7.49 µM | 0.78% of 330,000 active | AID 602340;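 active = mean ATP rescue above about 67%, or every replicate alone reaching that limit, limit read from the data, passing the limit was not always enough; inconclusive = no clear call, values can overlap the other calls; inactive = mean under the limit and some replicate under it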;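 note: myotubes were challenged with 10 µM simvastatin during compound exposure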
Numbers without * were called inactive; ? = inconclusive; · = not tested or not shown; ! = repeats disagree. Compounds with a hit are over-represented: about 1% of the library has one in this group of screens.

Assay codes – A = UUG fidelity; B = CDK5 inh; C = Rtt109 Vps75; D = Cneo AK release; E = C2C12 statin
[1] C[C@H](CO)N1C[C@H](C)[C@@H](CN(C)Cc2ccc(Cl)c(Cl)c2)Oc2ccc(NC(=O)C3CCCCC3)cc2CC1=O
  A: 2	B: ·	C: ·	D: -2	E: 132*

[2] C[C@H]1CN([C@@H](C)CO)C(=O)Cc2cc(NC(=O)C3CCCCC3)ccc2O[C@H]1CN(C)Cc1ccc(Cl)c(Cl)c1
  A: -2	B: ·	C: ·	D: -4	E: 22

[3] CN(C)C(=O)C[C@H]1CC[C@H]2[C@H](COc3ccc(NC(=O)NCc4ccccc4)cc3C(=O)N2C)O1
  A: ·	B: ·	C: ·	D: 2	E: -6

[4] C[C@@H]1CN([C@H](C)CO)C(=O)c2cccc(NC(=O)c3ccncc3)c2O[C@@H]1CN(C)C(=O)Nc1ccc(C(F)(F)F)cc1
  A: -4	B: ·	C: ·	D: 5	E: 9

[5] COc1ccc(CNC(=O)C2CCN(S(=O)(=O)c3ccc4c(c3)C(C)(C)C(=O)N4C)CC2)cc1
  A: -16	B: 0	C: -3	D: 0	E: 86*

[6] CCOc1ccc2c(c1)nc(SCC(=O)c1ccc(Br)s1)n2C
  A: -24	B: 3	C: 2	D: -1	E: 70*

[7] Nc1nc(CSc2nnnn2-c2ccccc2)nc(N2CCCc3ccccc32)n1
  A: -24	B: -1	C: 11	D: -1	E: 115*

[8] C[C@@H]1CN([C@H](C)CO)C(=O)c2cc(NS(C)(=O)=O)ccc2O[C@H]1CN(C)Cc1ccc(Oc2ccccc2)cc1
  A: -22	B: ·	C: ·	D: -2	E: 49

[9] C=CCn1c(COc2cccc3cccnc23)nnc1SCC(=O)O
  A: -2	B: -1	C: -5	D: -3	E: 105*

[10] C=CCn1c(COc2cccc3ccc(C)nc23)nnc1SCC(=O)O
  A: -11	B: -1	C: 7	D: 3	E: 3

Brought forward from above: three compounds, then new ones.
Assay codes – A = UUG fidelity; B = CDK5 inh; C = Rtt109 Vps75; D = Cneo AK release; E = C2C12 statin
[8] C[C@@H]1CN([C@H](C)CO)C(=O)c2cc(NS(C)(=O)=O)ccc2O[C@H]1CN(C)Cc1ccc(Oc2ccccc2)cc1
  A: -22	B: ·	C: ·	D: -2	E: 49

[9] C=CCn1c(COc2cccc3cccnc23)nnc1SCC(=O)O
  A: -2	B: -1	C: -5	D: -3	E: 105*

[10] C=CCn1c(COc2cccc3ccc(C)nc23)nnc1SCC(=O)O
  A: -11	B: -1	C: 7	D: 3	E: 3

[11] CCCNC(=O)N1C[C@H](O)COC[C@@H]2O[C@@H](CC(=O)N3CCOCC3)CC[C@H]21
  A: -9	B: ·	C: ·	D: -1	E: -4

[12] C[C@@H]1CCCCO[C@H](CN(C)C(=O)Nc2ccc(F)cc2)[C@H](C)CN([C@@H](C)CO)C(=O)c2cc(NS(=O)(=O)c3ccc(Cl)cc3)ccc2O1
  A: 9	B: ·	C: ·	D: 94*	E: ·

[13] C[C@H]1CCCCO[C@H](CN(C)C(=O)Nc2ccc(F)cc2)[C@@H](C)CN([C@@H](C)CO)C(=O)c2cc(NS(=O)(=O)c3ccc(Cl)cc3)ccc2O1
  A: 26	B: ·	C: ·	D: 85*	E: ·

[14] C[C@H](CO)N1C[C@H](C)[C@H](CN(C)C(=O)Nc2ccc(F)cc2)OCCCC[C@H](C)Oc2ccc(NS(=O)(=O)c3ccc(Cl)cc3)cc2C1=O
  A: -4	B: ·	C: ·	D: 10	E: ·

[15] C[C@@H]1CN([C@@H](C)CO)S(=O)(=O)c2ccc(C#CC3CC3)cc2O[C@H]1CN(C)Cc1ccccc1
  A: 2	B: ·	C: ·	D: 63	E: -70

[16] CS(=O)(=O)c1ncc(Cl)c(C(=O)Nc2ccc(OC(F)F)cc2)n1
  A: -8	B: 2	C: 0	D: -1	E: 117*

[17] CS(=O)(=O)c1ccc(C(=O)Nc2ccc(N3CCOCC3)cc2)c(Cl)c1
  A: -7	B: 0	C: 5	D: 2	E: 0

[18] Cc1ccccc1NC(=O)c1nc(S(C)(=O)=O)ncc1Cl
  A: -20	B: -1	C: -4	D: 5	E: ?

[19] CS(=O)(=O)c1ncc(Cl)c(C(=O)Nc2ccc(N3CCOCC3)cc2)n1
  A: ·	B: -1	C: 110*	D: ·	E: ·

[20] C[C@@H]1CCCCO[C@@H](CN(C)C(=O)Nc2ccc3c(c2)OCO3)[C@@H](C)CN([C@@H](C)CO)C(=O)c2cc(NC(=O)C3CCCCC3)ccc2O1
  A: -8	B: ·	C: ·	D: -4	E: ·

The list goes on:
Assay codes – A = UUG fidelity; B = CDK5 inh; C = Rtt109 Vps75; D = Cneo AK release; E = C2C12 statin
[21] CC(C)C(NC(=O)C1CCCCC1)C(=O)Nc1ccncc1 (configuration not stated)
  A: 3	B: 0	C: -7	D: -1	E: 124*

[22] CC(C)C(NC(=O)C1CCCCC1)C(=O)Nc1ccc2c(c1)OCCO2 (configuration not stated)
  A: -44	B: -1	C: 2	D: -3	E: 13

[23] C[C@@H]1CN([C@H](C)CO)C(=O)c2cc(-c3ccccc3F)cnc2O[C@H]1CN(C)Cc1ccc(F)cc1
  A: -10	B: ·	C: ·	D: -3	E: 0

[24] CCN(CC)S(=O)(=O)c1cccc(C(=O)NC(C(=O)NC2=NCCS2)C(C)C)c1 (configuration not stated)
  A: -9	B: -1	C: -8	D: -3	E: 81*

[25] CCN(CC)S(=O)(=O)c1cccc(C(=O)N[C@H](C(=O)NC2=NCCS2)C(C)C)c1
  A: ·	B: 2	C: 6	D: ·	E: ·

[26] Cc1ccc(S(=O)(=O)N[C@@H]2CC[C@H](CCNC(=O)CN3CCOCC3)O[C@H]2CO)cc1
  A: -5	B: ·	C: ·	D: -3	E: -2

[27] CCOC(=O)N1CCN(C(=O)Cn2nc(C)c3sc4ccccc4c3c2=O)CC1
  A: 4	B: 0	C: 0	D: 4	E: 103*

[28] O=C(c1cccnc1)N1CCC(Oc2ccc(C(=O)N3CCCC(O)C3)cc2)CC1 (configuration not stated)
  A: -24	B: 2	C: -3	D: 111*	E: 9

[29] C[C@@H]1CCCCO[C@@H](CN(C)C(=O)c2ccccc2)[C@H](C)CN([C@@H](C)CO)C(=O)c2cc(NC(=O)Nc3ccccc3)ccc2O1
  A: -5	B: ·	C: ·	D: 6	E: ·

[30] COc1ccc2[nH]c(=O)c(CN(Cc3nnnn3Cc3ccccc3)CC3CCCO3)cc2c1 (configuration not stated)
  A: -12	B: 1	C: 53*	D: 1	E: 2

New compounds follow:
Assay codes – A = UUG fidelity; B = CDK5 inh; C = Rtt109 Vps75; D = Cneo AK release; E = C2C12 statin
[31] COc1ccc2[nH]c(=O)c(CN(Cc3nnnn3Cc3ccc(F)cc3)CC3CCCO3)cc2c1 (configuration not stated)
  A: ·	B: -2	C: -14	D: ·	E: 1

[32] CCC(=O)N[C@H]1C=C[C@H](CC(=O)NCC2CCCCC2)O[C@@H]1CO
  A: 4	B: ·	C: ·	D: 89*	E: -4

[33] O=C(C[C@H]1C=C[C@H](NC(=O)C2CCC2)[C@@H](CO)O1)NC1CCC1
  A: -3	B: ·	C: ·	D: 91*	E: 0

[34] CCC(=O)N[C@@H]1C=C[C@H](CC(=O)NCC2CCCCC2)O[C@@H]1CO
  A: -8	B: ·	C: ·	D: 0	E: 2

[35] O=C(C[C@@H]1C=C[C@@H](NC(=O)C2CCC2)[C@@H](CO)O1)NC1CCC1
  A: -4	B: ·	C: ·	D: 0	E: 0

[36] O=C(C[C@@H]1C=C[C@@H](NC(=O)C2CCC2)[C@H](CO)O1)NC1CCC1
  A: 20	B: ·	C: ·	D: 96*	E: 5

[37] COc1ccc(NC(=O)N2C[C@@H](O)COC[C@@H]3O[C@H](CC(=O)NC4Cc5ccccc5C4)CC[C@H]32)cc1
  A: 8	B: ·	C: ·	D: -5	E: 5

[38] Cc1noc(C)c1S(=O)(=O)Nc1ccc2c(c1)C(=O)N([C@H](C)CO)C[C@@H](C)[C@@H](CN(C)C(=O)Nc1ccc(F)cc1)O2
  A: ·	B: ·	C: ·	D: ·	E: -2

[39] Cc1nc2nc(CSc3nnc(C)s3)cc(=O)n2[nH]1
  A: -14	B: -1	C: 0	D: 2	E: 107*!

[40] CCCc1cc(=O)n2[nH]c(C)nc2n1
  A: -18	B: -1	C: -8	D: -2	E: 3

The list continues:
Assay codes – A = UUG fidelity; B = CDK5 inh; C = Rtt109 Vps75; D = Cneo AK release; E = C2C12 statin
[41] O=C(C[C@H]1C=C[C@@H](NS(=O)(=O)c2ccc(F)cc2)[C@H](CO)O1)NCCc1ccncc1
  A: -16	B: ·	C: ·	D: 1	E: -5

[42] O=C(c1ccco1)N(Cc1ccco1)c1ccc(O)cc1
  A: -13	B: 0	C: -12	D: -1	E: 118*

[43] Cc1nc(SCCC(=O)O)c2cc(-c3ccccc3)sc2n1
  A: -15	B: 2	C: 22	D: -3	E: 67*

[44] Cc1nc(N2CCOCC2)c2cc(-c3ccccc3)sc2n1
  A: -20	B: 1	C: 13	D: 2	E: -4

[45] C[C@H](CO)N1C[C@H](C)[C@@H](CN(C)Cc2ccc(Cl)c(Cl)c2)Oc2ccc(NS(=O)(=O)c3ccc(Cl)cc3)cc2CC1=O
  A: 0	B: ·	C: ·	D: -1	E: 84*
